Here are results for one molecule from patent publication US20140086936A1.

The target of assay [1] is T1, Recombinant purified human matriptase (amino acids 596-855) (human), Q9Y5Y6.
T1 chain: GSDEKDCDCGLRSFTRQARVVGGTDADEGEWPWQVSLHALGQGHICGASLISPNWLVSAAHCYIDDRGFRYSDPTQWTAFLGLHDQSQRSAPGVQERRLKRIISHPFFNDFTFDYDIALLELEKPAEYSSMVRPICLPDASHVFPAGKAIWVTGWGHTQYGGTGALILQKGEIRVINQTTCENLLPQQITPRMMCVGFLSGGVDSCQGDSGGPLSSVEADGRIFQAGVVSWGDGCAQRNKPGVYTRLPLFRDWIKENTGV
Nature of the assay: enzyme inhibition, selectivity profile, Morrison tight-binding fit.

The target in assay [2] is T1, Recombinant purified human matriptase …. In words: enzyme inhibition, fluorogenic substrate Boc-Gln-Ala-Arg-AMC, Morrison tight-binding fit.

By Ki is commonly meant the equilibrium dissociation constant of an inhibitor or competing ligand from its target.

B1: RQAR-ketobenzothiazole (peptide)
peptide: RQAR
modifications: not checked
For the molecule B1, the Ki in assay [1] and in assay [2] was 0.011 nM in each case.
